Reference: patent publication US4652562A, “Quinoline derivatives and pharmaceutical compositions” (Egis Gyogyszergyar, priority 1985, dated 1987)

System: CFLP mice
Assay: Toxicity in test animals (CFLP mice), LD50 per os
Format: in vivo
Conditions: in words

## NC(=Nc1c([N+](=O)[O-])cnc2ccccc12)N1CCOCC1 [Example 1, N-(3-Nitro-4-quinolyl)-morpholino carboxamidine]
  toxicity in test animals: advantageous toxicity in test animals
